Data taken from ChEMBL document CHEMBL1157011, “8-Sulfonyl-substituted tetrahydro-1H-pyrido[4,3-b]indoles as 5-HT6 receptor antagonists” (Eur J Med Chem, 2010).

The chains behind the UniProt entries cited, without tags or fusion partners.
UniProt P50406, whole entry: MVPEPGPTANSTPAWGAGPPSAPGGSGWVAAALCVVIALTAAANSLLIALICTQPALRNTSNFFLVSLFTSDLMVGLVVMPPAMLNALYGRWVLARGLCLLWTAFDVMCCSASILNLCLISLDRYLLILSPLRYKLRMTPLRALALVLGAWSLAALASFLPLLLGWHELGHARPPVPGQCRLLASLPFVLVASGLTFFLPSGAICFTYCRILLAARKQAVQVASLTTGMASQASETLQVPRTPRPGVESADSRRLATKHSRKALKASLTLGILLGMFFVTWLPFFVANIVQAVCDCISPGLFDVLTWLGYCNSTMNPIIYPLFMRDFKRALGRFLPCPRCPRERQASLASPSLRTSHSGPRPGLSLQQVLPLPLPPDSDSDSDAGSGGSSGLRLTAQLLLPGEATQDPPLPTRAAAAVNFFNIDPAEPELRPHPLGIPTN

Target: 5-hydroxytryptamine receptor 6 (Homo sapiens, UniProt P50406)
Assay: Antagonist activity at human recombinant 5HT6 receptor expressed in HEK293 cells assessed as inhibition of serotonin-induced cAMP production by LANCE assay relative to serotonin
Type: functional, cell-based
Procedure, shortened: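 HEK-293 cells with a tetracycline-inducible (T-Rex) human 5-HT6 receptor, grown in DMEM/10% FBS with blasticidin S and zeocin and induced with tetracycline the day before. Medium was swapped for HBSS with 1 mM MgCl2, 1 mM CaCl2, IBMX and 5 mM HEPES, pH 7.4. Compounds (0.1% DMSO) were added 15 min at RT, then 10 nM serotonin for 30 min. cAMP read by LANCE; 2 independent experiments in duplicate.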

Imax: 100%
Structure (SMILES): CN1CCc2c(c3cc(S(C)(=O)=O)ccc3n2C)C1.Cl
